Test system: KP1010 (SHV-12)
Assay: Potentiation of tigemonam, strain KP1010
Conditions: minimum BLI concentration inhibiting growth with 4 μg/mL tigemonam

O=C(N[C@H]1Cc2cccc(C(=O)O)c2OB1O)c1cccnc1 [Compound 12, (R)-2-hydroxy-3-(nicotinamido)-3,4-dihydro-2H-benzo[e][1,2]oxaborinine-8-carboxylic acid] was tested. Which “TIG MPC4 SHV-12 KP1010” value did it give?
The value was “X (X = MIC of less than 1 μg/mL)”.

How did the “TIG MPC4 SHV-12 KP1010” value turn out when CSC(=O)N[C@H]1Cc2cccc(C(=O)O)c2OB1O [Compound 11, (R)-2-hydroxy-3-(methylthiocarbonylamino)-3,4-dihydro-2H-benzo[e][1,2]oxaborinine-8-carboxylic acid] was run?
The value was “X (X = MIC of less than 1 μg/mL)”.

For O=C(N[C@H]1Cc2cccc(C(=O)O)c2OB1O)c1cncnc1 [Compound 18, (R)-2-hydroxy-3-(pyrimidine-5-carboxamido)-3,4-dihydro-2H-benzo[e][1,2]oxaborinine-8-carboxylic acid], which “TIG MPC4 SHV-12 KP1010” value is on record?
Its value is “X (X = MIC of less than 1 μg/mL)”.

For Cn1nnnc1SCC(=O)N[C@H]1Cc2cccc(C(=O)O)c2OB1O [Compound 2, (R)-2-hydroxy-3-(2-(1-methyl-1H-tetrazol-5-ylthio)acetamido)-3,4-dihydro-2H-benzo[e][1,2]oxaborinine-8-carboxylic acid], which “TIG MPC4 SHV-12 KP1010” value is on record?
The value was “X (X = MIC of less than 1 μg/mL)”.

How did the “TIG MPC4 SHV-12 KP1010” value turn out when O=C(CSc1nncs1)N[C@H]1Cc2cccc(C(=O)O)c2OB1O [Compound 7, (R)-3-(2-(1,3,4-thiadiazol-2-ylthio)acetamido)-2-hydroxy-3,4-dihydro-2H-benzo[e][1,2]oxaborinine-8-carboxylic acid] was run?
Its value is “X (X = MIC of less than 1 μg/mL)”.

With NC(=O)N[C@H]1Cc2cccc(C(=O)O)c2OB1O [Compound 6, (R)-2-hydroxy-3-ureido-3,4-dihydro-2H-benzo[e][1,2]oxaborinine-8-carboxylic acid] as the molecule, how does the “TIG MPC4 SHV-12 KP1010” value read?
The value was “Y (Y = MIC of 1 μg/mL to 10 μg/mL)”.

With O=C(N[C@H]1Cc2cccc(C(=O)O)c2OB1O)c1cncs1 [Compound 15, (R)-2-hydroxy-3-(thiazole-5-carboxamido)-3,4-dihydro-2H-benzo[e][1,2]oxaborinine-8-carboxylic acid] as the molecule, how does the “TIG MPC4 SHV-12 KP1010” value read?
Its value is “X (X = MIC of less than 1 μg/mL)”.

With O=C(COCc1ccccc1)N[C@H]1Cc2cccc(C(=O)O)c2OB1O [CPD B, reference compound] as the molecule, how does the “TIG MPC4 SHV-12 KP1010” value read?
Its value is “Y (Y = MIC of 1 μg/mL to 10 μg/mL)”.

O=C(CSC(F)F)N[C@H]1Cc2cccc(C(=O)O)c2OB1O [Compound 3, (R)-3-(2-(difluoromethylthio)acetamido)-2-hydroxy-3,4-dihydro-2H-benzo[e][1,2]oxaborinine-8-carboxylic acid] was tested. Which “TIG MPC4 SHV-12 KP1010” value did it give?
Its value is “X (X = MIC of less than 1 μg/mL)”.

Which “TIG MPC4 SHV-12 KP1010” value does the source give for NC(=O)CC(=O)N[C@H]1Cc2cccc(C(=O)O)c2OB1O [Compound 16, (R)-3-(3-amino-3-oxopropanamido)-2-hydroxy-3,4-dihydro-2H-benzo[e][1,2]oxaborinine-8-carboxylic acid] here?
The value was “X (X = MIC of less than 1 μg/mL)”.

How did the “TIG MPC4 SHV-12 KP1010” value turn out when CN(C)C(=O)C(=O)N[C@H]1Cc2cccc(C(=O)O)c2OB1O [Compound 9, (R)-3-(2-(dimethylamino)-2-oxoacetamido)-2-hydroxy-3,4-dihydro-2H-benzo[e][1,2]oxaborinine-8-carboxylic acid] was run?
Its value is “Y (Y = MIC of 1 μg/mL to 10 μg/mL)”.

Which “TIG MPC4 SHV-12 KP1010” value does the source give for Nc1nnc(SCC(=O)N[C@H]2Cc3cccc(C(=O)O)c3OB2O)s1 [Compound 5, (R)-3-(2-(5-amino-1,3,4-thiadiazol-2-ylthio)acetamido)-2-hydroxy-3,4-dihydro-2H-benzo[e][1,2]oxaborinine-8-carboxylic acid] here?
Its value is “X (X = MIC of less than 1 μg/mL)”.

With CN(C)C(=O)CC(=O)N[C@H]1Cc2cccc(C(=O)O)c2OB1O [Compound 10, (R)-3-(3-(dimethylamino)-3-oxopropanamido)-2-hydroxy-3,4-dihydro-2H-benzo[e][1,2]oxaborinine-8-carboxylic acid] as the molecule, how does the “TIG MPC4 SHV-12 KP1010” value read?
Its value is “X (X = MIC of less than 1 μg/mL)”.

For O=C(CSC(F)(F)F)N[C@H]1Cc2cccc(C(=O)O)c2OB1O [Compound 1, (R)-2-hydroxy-3-(2-(trifluoromethylthio)acetamido)-3,4-dihydro-2H-benzo[e][1,2]oxaborinine-8-carboxylic acid], which “TIG MPC4 SHV-12 KP1010” value is on record?
The value was “X (X = MIC of less than 1 μg/mL)”.

Which “TIG MPC4 SHV-12 KP1010” value does the source give for O=C(N[C@H]1Cc2cccc(C(=O)O)c2OB1O)c1cncc(F)c1 [Compound 14, (R)-3-(5-fluoronicotinamido)-2-hydroxy-3,4-dihydro-2H-benzo[e][1,2]oxaborinine-8-carboxylic acid] here?
The value was “X (X = MIC of less than 1 μg/mL)”.

Which “TIG MPC4 SHV-12 KP1010” value does the source give for [N-]=[N+]=NCC(=O)N[C@H]1Cc2cccc(C(=O)O)c2OB1O [Compound 8, (R)-3-(2-azidoacetamido)-2-hydroxy-3,4-dihydro-2H-benzo[e][1,2]oxaborinine-8-carboxylic acid] here?
The value was “X (X = MIC of less than 1 μg/mL)”.

O=CN[C@H]1Cc2cccc(C(=O)O)c2OB1O [Compound 4, (R)-3-formamido-2-hydroxy-3,4-dihydro-2H-benzo[e][1,2]oxaborinine-8-carboxylic acid] was tested. Which “TIG MPC4 SHV-12 KP1010” value did it give?
Its value is “X (X = MIC of less than 1 μg/mL)”.

For NC(=O)C(=O)N[C@H]1Cc2cccc(C(=O)O)c2OB1O [Compound 17, (R)-3-(2-amino-2-oxoacetamido)-2-hydroxy-3,4-dihydro-2H-benzo[e][1,2]oxaborinine-8-carboxylic acid], which “TIG MPC4 SHV-12 KP1010” value is on record?
The value was “Y (Y = MIC of 1 μg/mL to 10 μg/mL)”.

How did the “TIG MPC4 SHV-12 KP1010” value turn out when O=C(Cc1cccs1)N[C@H]1Cc2cccc(C(=O)O)c2OB1O [CPD A, reference compound] was run?
The value was “X (X = MIC of less than 1 μg/mL)”.

For CSCC(=O)N[C@H]1Cc2cccc(C(=O)O)c2OB1O [Compound 13, (R)-2-hydroxy-3-(2-(methylthio)acetamido)-3,4-dihydro-2H-benzo[e][1,2]oxaborinine-8-carboxylic acid], which “TIG MPC4 SHV-12 KP1010” value is on record?
The value was “X (X = MIC of less than 1 μg/mL)”.

Nc1nnc(C(=O)N[C@H]2Cc3cccc(C(=O)O)c3OB2O)s1 [Compound 19, (R)-3-(5-amino-1,3,4-thiadiazole-2-carboxamido)-2-hydroxy-3,4-dihydro-2H-benzo[e][1,2]oxaborinine-8-carboxylic acid] was tested. Which “TIG MPC4 SHV-12 KP1010” value did it give?
Its value is “X (X = MIC of less than 1 μg/mL)”.
